Measured values published in BindingDB's records for doi:10.1016/0014-2999(96)00122-7 (Synaptic Pharmaceutical, 1996).

Amino acid sequences for entries named in this document (tags omitted). A change or cut given only in a name is not applied to a line headed by its entry.
UniProt Q62758: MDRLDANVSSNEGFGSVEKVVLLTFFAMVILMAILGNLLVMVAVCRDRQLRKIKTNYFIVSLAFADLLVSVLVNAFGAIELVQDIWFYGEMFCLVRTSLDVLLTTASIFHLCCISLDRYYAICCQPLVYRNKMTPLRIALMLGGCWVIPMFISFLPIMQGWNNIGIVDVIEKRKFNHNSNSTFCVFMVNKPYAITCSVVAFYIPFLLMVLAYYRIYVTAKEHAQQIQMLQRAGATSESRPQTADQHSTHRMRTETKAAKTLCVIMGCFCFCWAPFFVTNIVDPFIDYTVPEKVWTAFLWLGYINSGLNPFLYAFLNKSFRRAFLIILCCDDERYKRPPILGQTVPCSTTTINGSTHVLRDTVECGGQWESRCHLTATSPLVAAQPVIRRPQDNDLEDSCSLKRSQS

Target: 5-hydroxytryptamine receptor 4 (Rattus norvegicus, UniProt Q62758)

NCCc1c[nH]c2ccc(O)cc12 [[3H]-5-HT]
Ki: 6.3 nM
